Literature values as cited in patent publication US10668039B2, “Methods for treatment of adenoid cystic carcinoma” (THE CHILDREN'S MEDICAL CENTER CORPORATION, priority 2016, dated 2020).

Tested on: ACC
Conditions: Phase II trials in ACC; cited from earlier work

Substance: Cetuximab: targeted anticancer agent of a Phase II trial in ACC
- Objective Response Rate: 0%
